Values of other authors in patent US11564958B2, “Compositions and methods of treatment of Ehlers-Danlos syndromes” (RESOLYS BIO, INC., priority 2017, dated 2023).

System: classical form of EDS
Settings: human, in vivo

## IGF-I
  tendon collagen synthesis rates: improved
